Legend:
[1] = target: Carbonic anhydrase 13 (Homo sapiens, UniProt Q8N1Q1); assay: Inhibition of recombinant human CA-XIII incubated for 15 mins by stop-flow method
[2] = target: Carbonic anhydrase 7 (Homo sapiens, UniProt P43166); assay: Inhibition of recombinant human CA-VII incubated for 15 mins by stop-flow method
[3] = target: Carbonic anhydrase 12 (Homo sapiens, UniProt O43570); assay: Inhibition of recombinant human CA-XII incubated for 15 mins by stop-flow method
[4] = target: Carbonic anhydrase 2 (Homo sapiens, UniProt P00918); assay: Inhibition of recombinant human CA-II incubated for 15 mins by stop-flow method
[5] = target: Carbonic anhydrase 4 (Homo sapiens, UniProt P22748); assay: Inhibition of recombinant human CA-IV incubated for 15 mins by stop-flow method
[6] = target: Carbonic anhydrase 14 (Homo sapiens, UniProt Q9ULX7); assay: Inhibition of recombinant human CA-XIV incubated for 15 mins by stop-flow method
[7] = target: Carbonic anhydrase 5A, mitochondrial (Homo sapiens, UniProt P35218); assay: Inhibition of recombinant human CA-VA incubated for 15 mins by stop-flow method
[8] = target: Carbonic anhydrase 1 (Homo sapiens, UniProt P00915); assay: Inhibition of recombinant human CA-I incubated for 15 mins by stop-flow method
[9] = target: Carbonic anhydrase 9 (Homo sapiens, UniProt Q16790); assay: Inhibition of recombinant human CA-IX incubated for 15 mins by stop-flow method

Sequences of proteins named here, by UniProt entry; tags and fusion partners are left off. Residues count along the entry.
UniProt Q8N1Q1, whole entry: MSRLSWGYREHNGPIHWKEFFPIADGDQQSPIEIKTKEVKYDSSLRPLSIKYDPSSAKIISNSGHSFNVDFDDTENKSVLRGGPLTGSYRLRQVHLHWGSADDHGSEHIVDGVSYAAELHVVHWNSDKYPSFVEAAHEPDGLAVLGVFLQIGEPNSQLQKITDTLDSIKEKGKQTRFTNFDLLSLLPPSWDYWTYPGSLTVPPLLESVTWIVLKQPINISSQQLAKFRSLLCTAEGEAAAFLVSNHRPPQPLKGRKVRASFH
UniProt P43166, whole entry: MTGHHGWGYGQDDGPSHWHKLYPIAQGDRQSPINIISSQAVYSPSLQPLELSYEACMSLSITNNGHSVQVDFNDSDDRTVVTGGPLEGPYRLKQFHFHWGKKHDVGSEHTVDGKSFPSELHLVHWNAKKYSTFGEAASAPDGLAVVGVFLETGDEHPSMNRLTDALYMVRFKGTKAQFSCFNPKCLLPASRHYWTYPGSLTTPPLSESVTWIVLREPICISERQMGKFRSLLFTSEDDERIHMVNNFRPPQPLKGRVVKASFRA
UniProt O43570, 25-354 limits assumed: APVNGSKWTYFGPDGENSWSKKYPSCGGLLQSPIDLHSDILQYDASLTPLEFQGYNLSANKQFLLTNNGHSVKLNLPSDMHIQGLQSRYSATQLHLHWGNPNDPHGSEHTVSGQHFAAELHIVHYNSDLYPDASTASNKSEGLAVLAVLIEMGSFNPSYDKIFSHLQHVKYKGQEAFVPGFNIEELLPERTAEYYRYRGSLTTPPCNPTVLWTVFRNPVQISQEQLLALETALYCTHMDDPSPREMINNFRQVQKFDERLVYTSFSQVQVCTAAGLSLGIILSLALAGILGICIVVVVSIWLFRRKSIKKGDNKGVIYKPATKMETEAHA
UniProt P22748, 19-284 limits assumed: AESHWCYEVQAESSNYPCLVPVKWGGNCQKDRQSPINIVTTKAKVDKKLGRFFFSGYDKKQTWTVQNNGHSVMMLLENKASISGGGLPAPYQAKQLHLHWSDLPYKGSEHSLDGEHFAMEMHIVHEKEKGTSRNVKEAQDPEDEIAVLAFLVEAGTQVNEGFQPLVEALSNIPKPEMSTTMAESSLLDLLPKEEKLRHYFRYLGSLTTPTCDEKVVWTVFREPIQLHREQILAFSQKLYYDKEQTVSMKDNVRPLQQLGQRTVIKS
UniProt Q9ULX7, 16-337 limits assumed: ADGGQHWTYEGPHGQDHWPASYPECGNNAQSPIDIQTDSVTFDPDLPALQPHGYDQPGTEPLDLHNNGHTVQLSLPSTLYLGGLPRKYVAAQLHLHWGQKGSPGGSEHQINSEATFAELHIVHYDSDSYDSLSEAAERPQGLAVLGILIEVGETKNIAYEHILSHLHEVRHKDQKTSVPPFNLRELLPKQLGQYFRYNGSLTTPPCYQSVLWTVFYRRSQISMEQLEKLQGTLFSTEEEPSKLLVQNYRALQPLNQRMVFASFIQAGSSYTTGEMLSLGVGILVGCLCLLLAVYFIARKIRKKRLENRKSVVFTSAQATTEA
UniProt P35218, 39-305 limits assumed: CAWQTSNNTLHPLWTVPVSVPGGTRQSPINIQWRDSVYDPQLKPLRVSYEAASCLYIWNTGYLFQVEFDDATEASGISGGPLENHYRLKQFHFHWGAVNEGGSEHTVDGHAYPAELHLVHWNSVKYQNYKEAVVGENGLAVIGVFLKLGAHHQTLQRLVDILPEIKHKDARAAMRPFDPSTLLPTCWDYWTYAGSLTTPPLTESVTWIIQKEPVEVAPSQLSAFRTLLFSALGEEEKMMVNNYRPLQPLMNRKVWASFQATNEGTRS
UniProt P00915, 2-261 limits assumed: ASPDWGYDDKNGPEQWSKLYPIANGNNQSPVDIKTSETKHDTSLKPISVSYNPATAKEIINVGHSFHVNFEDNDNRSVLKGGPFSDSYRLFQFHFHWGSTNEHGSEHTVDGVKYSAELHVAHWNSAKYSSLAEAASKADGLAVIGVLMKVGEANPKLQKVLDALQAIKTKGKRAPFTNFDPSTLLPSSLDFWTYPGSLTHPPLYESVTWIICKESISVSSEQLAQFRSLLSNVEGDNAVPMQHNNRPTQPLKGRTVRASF

SMILES | Ki [1] [µM] | Ki [2] [µM] | Ki [3] [µM] | Ki [4] [µM] | Ki [5] [µM] | Ki [6] [µM] | Ki [7] [µM] | Ki [8] [µM] | Ki [9] [µM]
Cc1ccc(NC2(C#N)CCN(CCc3ccc(S(N)(=O)=O)cc3)CC2)cc1 | 3.37 | 0.0094 | 0.0489 | 0.0085 | 9.17 | 0.0602 | – | – | –
N#CC1(Nc2ccccc2)CCN(CCc2ccc(S(N)(=O)=O)cc2)CC1 | 3.47 | 0.0337 | 0.0078 | 0.0007 | 9.34 | 0.0915 | 0.075 | 0.0046 | 0.0048
NS(=O)(=O)c1ccc(CCN2CCC(Nc3ccccc3)CC2)cc1 | 0.0637 | 0.0095 | 0.0056 | 0.0183 | 7.59 | 0.0381 | 0.0766 | 0.0665 | 0.0166

Source: ChEMBL document CHEMBL5625255, “Discovery of a novel series of potent carbonic anhydrase inhibitors with selective affinity for μ Opioid receptor for Safer and long-lasting analgesia” (2023)
